System: kinases of Table 6 on Myelin Basic Protein (MBP)
Assay: Kinase assay using MBP substrate, ProQ Diamond stain (Table 6)
Type: biochemical
Conditions: kinase printed on MBP-coated slide; 20 uM ATP, 30° C.; ProQ Diamond Microarray Stain; graded Strong/Weak/Negative

Substance: CDK1/cyclin B
- MBP Kinase Activity: Strong

Source: US20090099029A1, “Methods and substrates for conducting assays” (Invitrogen Corporation, priority 2005, published 2009)
